Assay results published in PubChem BioAssay AID1850 (Southern Research Specialized Biocontainment Screening …, 2009).
This is a selection; strong and weak results do not stand in their true shares. Entries with a potency or affinity are not part of this list. Some structures show a salt or complex split into parts, the way the source records it. The source made the active and inactive calls. No rule for the calls is given here.

assay: Inhibition of PhoP regulon, Salmonella typhi GFP reporter cells, confirmation, 4 h (AID 1850); details: Salmonella Typhi PhoP-promoter GFP reporter, fluorescence, at 50 µM, hits give high values;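 also: 0% = induced wells with vehicle and 100% = uninduced wells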

SMILES | inhibition
COc1ccc(OP(C)(=O)Nc2cccc(F)c2)cc1 (stereo not given) | inactive: -5.08%
COc1ccccc1OP(C)(=O)Nc1cc(Cl)ccc1C (stereo not given) | inactive: 2.5%
Cc1cc(C)cc(OP(C)(N)=O)c1 (stereo not given) | inactive: -11.2%
CCOC(=O)c1ccc(NP(C)(=O)Oc2ccccc2)cc1 (stereo not given) | inactive: -10.3%
Cc1ccc(NP(C)(=O)Oc2ccccc2)c(C)c1 (stereo not given) | inactive: -0.8%
COc1ccccc1OP(C)(=O)Nc1ccc(C)cc1 (stereo not given) | inactive: -0.37%
Cc1cccc(C)c1OP(C)(N)=O (stereo not given) | inactive: 4.99%
CC(C)(C)c1ccc(OP(C)(=O)Nc2ccc(SC(F)(F)F)cc2)cc1 (stereo not given) | inactive: -6.94%
O=[N+]([O-])c1ccc2c(c1)C=Nc1ccccc1O2 | inactive: -3.36%
O=[N+]([O-])c1cc([N+](=O)[O-])c(Nc2cccnc2)c([N+](=O)[O-])c1 | inactive: -18%
CCN(CC)CCCOC(=O)C(O)(c1ccccc1)c1ccccc1 | inactive: 5.97%
CP(=O)(Nc1ccccn1)Oc1ccc(Cl)cc1 (stereo not given) | inactive: 1.52%
CCOP(C)(=S)SCC(=O)NC(C)C(=O)O (stereo not given) | inactive: 14.9%
O=[N+]([O-])c1cc([N+](=O)[O-])c(O)c([N+](=O)[O-])c1.c1ccc(Oc2ccncc2)cc1 | inactive: -5.22%
CCOC(=O)c1ccc(NP(C)(=O)Oc2ccc(OC)cc2)cc1 (stereo not given) | inactive: -4.98%
Cc1cc(C)cc(OP(C)(=O)Nc2ccc(SC(F)(F)F)cc2)c1 (stereo not given) | inactive: -1.5%
CCc1ccc(OP(C)(=O)N2CCN(c3ccc([N+](=O)[O-])cc3)CC2)cc1 (stereo not given) | inactive: 8.66%
CP(=O)(NC(=O)Nc1ccccc1)Oc1ccccc1 (stereo not given) | inactive: -12.8%
CP(=O)(Oc1ccccc1)OC(c1ccccc1)C(F)(F)F (stereo not given) | inactive: 2.47%
CP(=O)(Nc1ccc(SC(F)(F)F)cc1)Oc1ccc(Cl)cc1 (stereo not given) | inactive: -10.5%
Cc1cccc(C)c1OP(C)(=O)Nc1ccc(SC(F)(F)F)cc1 (stereo not given) | inactive: -1.16%
COc1ccccc1OP(C)(=O)Nc1ccccc1 (stereo not given) | inactive: -11.8%
CP(=O)(Nc1ccccc1Br)Oc1ccccc1 (stereo not given) | inactive: -5.32%
CP(=S)(Nn1cnnc1)Oc1ccccc1 (stereo not given) | inactive: -3.92%
CP(=O)(Nc1ccc(SC(F)(F)F)cc1)Oc1ccccc1 (stereo not given) | inactive: -8.04%
CCCOc1ccc(NP(C)(=O)Oc2ccc(Cl)cc2)cc1 (stereo not given) | inactive: -4.95%
CN1CCCCC1COC(=O)C1(O)c2ccccc2CCc2ccccc21 (stereo not given) | inactive: 19.9%
COc1ccccc1OP(C)(=O)Nc1c(C)cccc1C (stereo not given) | inactive: 4.74%

SMILES | inhibition
CCOC(=O)C(CC)C1=NC(C)(C)Cc2ccccc21.O=[N+]([O-])c1cc([N+](=O)[O-])c(O)c([N+](=O)[O-])c1 (stereo not given) | inactive: 5.19%
O=[N+]([O-])c1cc([N+](=O)[O-])c(Nc2nnnn2CCO)c([N+](=O)[O-])c1 | inactive: -7.66%
CC1=C2N=C(C=C3N=C(C(C)=C4[N-][C@@](C)([C@@H]5N=C1[C@](C)(CCC(=O)NC[C@@H](C)OP(=O)([O-])O[C@H]1[C@@H](O)[C@@H](n6cnc7cc(C)c(C)cc76)O[C@@H]1CO)[C@H]5CC(N)=O)[C@@](C)(CC(N)=O)[C@@H]4CCC(N)=O)[C@@](C)(CC(N)=O)[C@@H]3CCC(N)=O)C(C)(C)[C@@H]2CCC(N)=O.[C-]#N.[Co+3] | inactive: -4.86%
Cc1nc2ccc3ccccc3c2s1.O=[N+]([O-])c1cc([N+](=O)[O-])c(O)c([N+](=O)[O-])c1 | inactive: -8.76%
O=[N+]([O-])c1cc([N+](=O)[O-])c(-c2cnn(-c3ccccc3)c2)c([N+](=O)[O-])c1 | inactive: -2.39%
O=[N+]([O-])c1cc([N+](=O)[O-])c(-n2nnc3ccccc32)c([N+](=O)[O-])c1 | inactive: 1.03%
CP(=O)(Nc1cccc(Br)c1)Oc1ccccc1 (stereo not given) | inactive: 12.2%
Cc1cc(C)cc(OP(C)(=O)Nc2ccccn2)c1 (stereo not given) | inactive: -11.7%
Cc1ccc(C)c(NP(C)(=O)Oc2ccccc2)c1 (stereo not given) | inactive: 6.84%
Cc1cc(C)cc(OP(C)(=O)Nc2ccc(C)cc2C)c1 (stereo not given) | inactive: 6.81%
CCOC(=O)c1ccc(NP(C)(=O)Oc2cc(C)cc(C)c2)cc1 (stereo not given) | inactive: 1.75%
COc1ccccc1OP(C)(=O)Nc1cccc(Br)c1 (stereo not given) | inactive: 7.26%
CC1=NCCc2c1[nH]c1ccccc21.O=[N+]([O-])c1cc([N+](=O)[O-])c(O)c([N+](=O)[O-])c1 | inactive: 7.38%
O=C(O)c1cccc(Nc2c([N+](=O)[O-])cc([N+](=O)[O-])cc2[N+](=O)[O-])c1 | inactive: 0.43%
O=[N+]([O-])c1cc([N+](=O)[O-])c(OC2CCCCC2O)c([N+](=O)[O-])c1 (stereo not given) | inactive: -3.57%
CCCCCOc1ccc(NP(C)(=O)Oc2ccc(Cl)cc2Cl)cc1 (stereo not given) | inactive: 4.21%
CP(=O)(Nc1ccccc1)Oc1ccc(F)cc1 (stereo not given) | inactive: -1.05%
CCN(CC)CCCOC(=O)C(O)(c1ccccc1)C1CCCCC1 (stereo not given) | inactive: -5.12%
COc1ccc(OP(C)(=O)Nc2ccc(SC(F)(F)F)cc2)cc1 (stereo not given) | inactive: -2.97%
CCOC(=O)c1ccc(NP(C)(=O)Oc2ccc(F)cc2)cc1 (stereo not given) | inactive: -6.33%
COc1ccc2c(c1O)-c1c(O)c(OC)cc3c1[C@H](C2)[N+](C)(C)CC3.O=[N+]([O-])c1cc([N+](=O)[O-])c([O-])c([N+](=O)[O-])c1[O-] | inactive: -20.5%
O=C(OCCN1CCN(CCOCc2ccccc2)CC1)C(O)(c1ccccc1)c1ccccc1 | inactive: 0.983%
O=C(OC1CN2CCC1CC2)c1ccc([N+](=O)[O-])cc1 (stereo not given) | inactive: 1.73%
CC(C)c1ccc(OP(C)(=O)Nc2ccc(SC(F)(F)F)cc2)cc1 (stereo not given) | inactive: -0.81%
CP(=O)(Nc1ccccc1F)Oc1ccccc1 (stereo not given) | inactive: -4.12%
Cc1ccccc1NP(C)(=O)Nc1ccccc1C | inactive: 6.18%
CP(=O)(Nc1ccc2c(c1)OCCO2)Oc1ccccc1 (stereo not given) | inactive: 2.02%
